# Test results reported in PubChem BioAssay.
# Protein sequences, listed by entry. Tags and fused reporters are not part of them.
# UniProt Q16828, whole entry, looked up: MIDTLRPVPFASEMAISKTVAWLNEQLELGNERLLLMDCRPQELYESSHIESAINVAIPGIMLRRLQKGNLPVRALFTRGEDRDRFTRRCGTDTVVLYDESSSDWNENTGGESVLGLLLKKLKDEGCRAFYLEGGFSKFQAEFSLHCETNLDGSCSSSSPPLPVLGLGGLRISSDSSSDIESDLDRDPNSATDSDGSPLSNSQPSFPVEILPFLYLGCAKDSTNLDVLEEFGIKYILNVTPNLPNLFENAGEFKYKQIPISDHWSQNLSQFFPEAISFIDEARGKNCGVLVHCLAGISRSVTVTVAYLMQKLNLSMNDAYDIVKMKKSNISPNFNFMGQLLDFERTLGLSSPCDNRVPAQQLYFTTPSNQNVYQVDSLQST
# The other results are listed elsewhere or left out. Activity calls are given as the source filed them.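 Rule for the calls: active = compounds giving at least 50% inhibition in the cell-based MKP-3 phosphatase rescue imaging test; inactive = the rest.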
# Biological target: Dual specificity protein phosphatase 6 (Homo sapiens) (UniProt Q16828)
# Assay: Primary imaging screen for DUSP6 inhibitors that restore phospho-Erk in transfected HeLa cells, chemical complementation (AID 609);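 note: phospho-Erk level distribution per well compared with pooled transfected vehicle control wells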
# Conditions: HeLa MKP-3 transfected, phospho-Erk imaging KS statistic; at 10 µM; hits give high values; cells stimulated with TPA for 15 min
smiles,measurement,value
CCN(CC)CC(O)COC(=O)C(O)(c1ccccc1)C1CCCCC1 (stereo unspecified),inhibition,inactive: 1.75%
